Results from patent US10670605B2, “Cysteine reactive probes and uses thereof” (The Scripps Research Institute, priority 2015, dated 2020).

Chains of the proteins cited; added tags and fusions are not shown. Lines headed by an entry give the natural chain unless they say otherwise; changes in a name come on top. Residues count along the entry.
UniProt P19447: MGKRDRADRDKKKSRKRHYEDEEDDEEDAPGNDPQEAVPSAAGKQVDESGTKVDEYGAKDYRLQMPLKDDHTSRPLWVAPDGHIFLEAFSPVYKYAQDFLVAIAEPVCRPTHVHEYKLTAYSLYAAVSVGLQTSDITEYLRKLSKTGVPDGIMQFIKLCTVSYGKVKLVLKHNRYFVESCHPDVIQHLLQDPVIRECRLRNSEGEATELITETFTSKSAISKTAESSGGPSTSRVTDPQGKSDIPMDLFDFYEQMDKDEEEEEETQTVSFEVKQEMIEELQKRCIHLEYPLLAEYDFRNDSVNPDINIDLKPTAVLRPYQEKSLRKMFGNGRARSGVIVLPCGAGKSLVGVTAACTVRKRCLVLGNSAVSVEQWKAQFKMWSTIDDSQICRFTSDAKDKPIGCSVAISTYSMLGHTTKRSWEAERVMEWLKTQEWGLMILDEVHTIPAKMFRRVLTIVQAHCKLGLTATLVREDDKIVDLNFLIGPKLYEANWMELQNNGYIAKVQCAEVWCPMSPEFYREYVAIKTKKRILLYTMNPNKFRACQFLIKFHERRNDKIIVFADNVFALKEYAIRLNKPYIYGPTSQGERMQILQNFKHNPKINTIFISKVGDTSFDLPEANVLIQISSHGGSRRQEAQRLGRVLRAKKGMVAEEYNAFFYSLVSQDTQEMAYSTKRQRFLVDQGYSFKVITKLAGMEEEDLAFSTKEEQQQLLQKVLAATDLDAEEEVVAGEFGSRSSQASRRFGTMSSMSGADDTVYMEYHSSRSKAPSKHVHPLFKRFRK
UniProt P09211: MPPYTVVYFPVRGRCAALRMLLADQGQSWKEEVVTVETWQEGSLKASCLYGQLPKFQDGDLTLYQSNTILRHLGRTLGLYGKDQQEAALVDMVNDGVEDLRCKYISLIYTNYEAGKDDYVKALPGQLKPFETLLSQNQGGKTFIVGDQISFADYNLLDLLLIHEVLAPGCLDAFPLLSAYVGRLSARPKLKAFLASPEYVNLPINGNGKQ
UniProt Q15084, 20-440 limits assumed: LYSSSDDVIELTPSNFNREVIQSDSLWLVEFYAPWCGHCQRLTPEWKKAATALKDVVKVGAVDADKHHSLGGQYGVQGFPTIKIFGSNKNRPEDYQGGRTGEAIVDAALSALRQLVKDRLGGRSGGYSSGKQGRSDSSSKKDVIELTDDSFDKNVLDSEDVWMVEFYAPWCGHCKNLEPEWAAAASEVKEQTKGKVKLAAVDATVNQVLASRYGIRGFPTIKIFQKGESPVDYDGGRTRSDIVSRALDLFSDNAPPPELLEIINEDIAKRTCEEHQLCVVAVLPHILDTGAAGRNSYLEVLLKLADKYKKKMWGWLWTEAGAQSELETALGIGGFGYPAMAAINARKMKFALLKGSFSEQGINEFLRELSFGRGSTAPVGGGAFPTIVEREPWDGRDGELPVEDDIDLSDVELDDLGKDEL
UniProt P50851: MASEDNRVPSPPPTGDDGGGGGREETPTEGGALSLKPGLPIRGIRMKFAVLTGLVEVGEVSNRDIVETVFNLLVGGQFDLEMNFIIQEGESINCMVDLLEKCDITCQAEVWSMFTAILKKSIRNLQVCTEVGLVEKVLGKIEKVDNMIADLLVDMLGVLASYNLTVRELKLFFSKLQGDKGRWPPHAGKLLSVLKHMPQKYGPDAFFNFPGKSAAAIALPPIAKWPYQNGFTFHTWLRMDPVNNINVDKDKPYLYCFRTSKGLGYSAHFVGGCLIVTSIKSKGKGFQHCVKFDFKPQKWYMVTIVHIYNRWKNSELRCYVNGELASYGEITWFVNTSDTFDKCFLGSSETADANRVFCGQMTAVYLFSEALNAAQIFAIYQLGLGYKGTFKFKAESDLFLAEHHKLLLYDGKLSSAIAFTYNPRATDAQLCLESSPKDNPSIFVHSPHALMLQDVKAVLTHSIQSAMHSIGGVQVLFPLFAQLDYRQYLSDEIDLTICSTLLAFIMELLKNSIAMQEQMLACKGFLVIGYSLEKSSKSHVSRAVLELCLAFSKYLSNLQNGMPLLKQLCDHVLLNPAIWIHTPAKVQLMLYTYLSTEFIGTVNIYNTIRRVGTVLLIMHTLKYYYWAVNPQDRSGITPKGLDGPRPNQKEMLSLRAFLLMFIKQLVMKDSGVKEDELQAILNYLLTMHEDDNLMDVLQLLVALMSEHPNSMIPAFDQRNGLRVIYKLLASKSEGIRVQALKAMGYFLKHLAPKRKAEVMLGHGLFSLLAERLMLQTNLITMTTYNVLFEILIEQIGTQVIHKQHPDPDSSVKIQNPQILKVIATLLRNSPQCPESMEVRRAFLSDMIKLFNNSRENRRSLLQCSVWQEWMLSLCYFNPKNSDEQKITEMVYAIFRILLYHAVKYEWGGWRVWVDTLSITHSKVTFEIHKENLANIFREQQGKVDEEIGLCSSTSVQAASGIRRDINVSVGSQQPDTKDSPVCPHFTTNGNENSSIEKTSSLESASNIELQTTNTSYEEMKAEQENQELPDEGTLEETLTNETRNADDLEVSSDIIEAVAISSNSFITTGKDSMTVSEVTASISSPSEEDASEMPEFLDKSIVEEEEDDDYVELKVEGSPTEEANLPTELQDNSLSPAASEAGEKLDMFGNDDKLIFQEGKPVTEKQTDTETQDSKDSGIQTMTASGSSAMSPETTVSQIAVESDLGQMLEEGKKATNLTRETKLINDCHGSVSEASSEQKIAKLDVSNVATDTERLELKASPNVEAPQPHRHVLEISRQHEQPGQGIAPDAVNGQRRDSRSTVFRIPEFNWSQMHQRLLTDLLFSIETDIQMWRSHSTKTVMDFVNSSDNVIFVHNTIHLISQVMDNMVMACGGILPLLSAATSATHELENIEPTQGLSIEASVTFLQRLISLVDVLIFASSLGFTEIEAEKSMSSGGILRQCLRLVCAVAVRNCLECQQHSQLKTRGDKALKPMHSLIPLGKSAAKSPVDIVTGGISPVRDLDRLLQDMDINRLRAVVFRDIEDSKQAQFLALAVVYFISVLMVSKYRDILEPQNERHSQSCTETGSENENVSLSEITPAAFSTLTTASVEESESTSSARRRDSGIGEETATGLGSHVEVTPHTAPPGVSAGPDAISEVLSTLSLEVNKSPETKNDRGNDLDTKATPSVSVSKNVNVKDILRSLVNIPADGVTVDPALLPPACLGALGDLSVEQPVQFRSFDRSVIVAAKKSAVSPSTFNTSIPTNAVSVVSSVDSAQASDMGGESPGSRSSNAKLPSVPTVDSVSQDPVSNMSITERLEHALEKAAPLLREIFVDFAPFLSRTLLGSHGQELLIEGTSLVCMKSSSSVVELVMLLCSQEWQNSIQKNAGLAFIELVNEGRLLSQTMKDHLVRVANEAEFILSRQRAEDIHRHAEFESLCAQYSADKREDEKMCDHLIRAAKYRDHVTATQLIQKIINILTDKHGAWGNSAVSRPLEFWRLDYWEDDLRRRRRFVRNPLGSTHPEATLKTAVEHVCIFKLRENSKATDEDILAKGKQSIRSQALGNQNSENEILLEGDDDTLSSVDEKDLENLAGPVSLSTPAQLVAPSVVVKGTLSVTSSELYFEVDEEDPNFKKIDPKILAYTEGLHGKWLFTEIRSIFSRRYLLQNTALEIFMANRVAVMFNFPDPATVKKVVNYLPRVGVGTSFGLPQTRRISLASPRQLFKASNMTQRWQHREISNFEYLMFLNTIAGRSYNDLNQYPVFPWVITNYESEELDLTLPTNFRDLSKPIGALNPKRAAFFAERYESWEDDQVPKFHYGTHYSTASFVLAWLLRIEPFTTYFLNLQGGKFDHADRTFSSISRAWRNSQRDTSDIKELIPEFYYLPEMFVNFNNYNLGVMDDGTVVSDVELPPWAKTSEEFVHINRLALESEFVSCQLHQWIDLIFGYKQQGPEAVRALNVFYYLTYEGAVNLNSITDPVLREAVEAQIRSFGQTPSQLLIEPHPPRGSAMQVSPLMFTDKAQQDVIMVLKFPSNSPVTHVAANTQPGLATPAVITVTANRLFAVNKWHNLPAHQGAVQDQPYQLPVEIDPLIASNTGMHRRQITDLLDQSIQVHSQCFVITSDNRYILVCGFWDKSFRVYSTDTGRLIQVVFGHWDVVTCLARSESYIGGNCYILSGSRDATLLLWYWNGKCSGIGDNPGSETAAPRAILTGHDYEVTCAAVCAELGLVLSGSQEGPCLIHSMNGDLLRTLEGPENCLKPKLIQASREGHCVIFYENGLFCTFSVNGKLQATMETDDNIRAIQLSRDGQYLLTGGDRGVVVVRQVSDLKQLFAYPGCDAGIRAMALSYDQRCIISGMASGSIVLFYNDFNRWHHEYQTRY
UniProt P48735, 40-452 limits assumed: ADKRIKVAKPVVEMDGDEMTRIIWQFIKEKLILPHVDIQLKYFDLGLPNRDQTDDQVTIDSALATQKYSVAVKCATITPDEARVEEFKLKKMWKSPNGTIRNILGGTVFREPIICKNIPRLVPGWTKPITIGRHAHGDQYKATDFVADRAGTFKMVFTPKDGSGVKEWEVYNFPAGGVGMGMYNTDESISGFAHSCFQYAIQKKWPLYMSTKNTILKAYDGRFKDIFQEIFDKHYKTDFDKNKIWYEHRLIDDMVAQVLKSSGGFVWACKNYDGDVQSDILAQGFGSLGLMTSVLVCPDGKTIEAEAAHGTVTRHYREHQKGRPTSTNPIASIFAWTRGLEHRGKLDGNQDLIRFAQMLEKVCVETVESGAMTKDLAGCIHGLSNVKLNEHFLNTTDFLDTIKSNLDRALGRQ
UniProt P48200: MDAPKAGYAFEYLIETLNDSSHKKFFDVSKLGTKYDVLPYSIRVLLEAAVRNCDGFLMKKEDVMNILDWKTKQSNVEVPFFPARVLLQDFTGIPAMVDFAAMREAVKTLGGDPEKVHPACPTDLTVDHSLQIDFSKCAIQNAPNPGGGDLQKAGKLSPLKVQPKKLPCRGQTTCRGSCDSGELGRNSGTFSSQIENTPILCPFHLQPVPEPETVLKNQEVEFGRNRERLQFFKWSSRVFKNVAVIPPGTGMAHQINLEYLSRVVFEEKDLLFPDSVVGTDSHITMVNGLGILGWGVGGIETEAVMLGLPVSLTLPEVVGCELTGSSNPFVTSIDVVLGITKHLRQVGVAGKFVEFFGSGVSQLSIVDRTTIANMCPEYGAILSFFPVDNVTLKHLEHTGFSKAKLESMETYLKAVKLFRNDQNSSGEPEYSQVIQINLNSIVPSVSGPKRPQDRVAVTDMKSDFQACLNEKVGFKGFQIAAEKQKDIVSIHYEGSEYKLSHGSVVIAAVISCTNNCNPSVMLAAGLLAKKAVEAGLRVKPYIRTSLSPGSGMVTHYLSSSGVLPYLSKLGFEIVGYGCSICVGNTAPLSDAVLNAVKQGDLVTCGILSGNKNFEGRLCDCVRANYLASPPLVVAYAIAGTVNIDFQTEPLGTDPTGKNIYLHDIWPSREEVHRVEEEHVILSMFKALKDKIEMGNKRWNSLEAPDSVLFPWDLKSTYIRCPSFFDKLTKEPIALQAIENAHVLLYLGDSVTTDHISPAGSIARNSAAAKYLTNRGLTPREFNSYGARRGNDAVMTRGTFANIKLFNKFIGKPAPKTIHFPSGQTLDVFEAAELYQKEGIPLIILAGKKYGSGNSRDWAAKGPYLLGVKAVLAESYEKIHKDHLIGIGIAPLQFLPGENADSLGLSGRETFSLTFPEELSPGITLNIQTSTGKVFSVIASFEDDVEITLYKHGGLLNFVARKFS
UniProt P16455, whole entry, looked up: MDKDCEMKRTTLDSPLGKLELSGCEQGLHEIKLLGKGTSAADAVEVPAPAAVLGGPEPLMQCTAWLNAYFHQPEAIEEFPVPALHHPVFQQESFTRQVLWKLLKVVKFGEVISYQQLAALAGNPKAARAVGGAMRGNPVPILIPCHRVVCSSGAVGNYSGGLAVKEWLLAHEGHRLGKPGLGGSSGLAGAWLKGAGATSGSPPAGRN
UniProt Q02556: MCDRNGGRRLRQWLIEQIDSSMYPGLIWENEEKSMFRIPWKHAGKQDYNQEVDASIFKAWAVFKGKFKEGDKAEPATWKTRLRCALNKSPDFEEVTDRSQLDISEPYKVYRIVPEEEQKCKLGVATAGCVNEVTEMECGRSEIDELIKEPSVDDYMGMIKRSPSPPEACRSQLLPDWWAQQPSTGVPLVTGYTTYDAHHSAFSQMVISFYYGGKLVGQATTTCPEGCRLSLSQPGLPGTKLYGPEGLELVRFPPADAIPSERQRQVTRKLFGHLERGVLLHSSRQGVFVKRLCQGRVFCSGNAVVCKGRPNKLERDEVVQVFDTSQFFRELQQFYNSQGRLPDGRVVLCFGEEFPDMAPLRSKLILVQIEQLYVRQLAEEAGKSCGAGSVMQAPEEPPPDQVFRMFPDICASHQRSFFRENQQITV
UniProt Q14790, 217-479 limits assumed: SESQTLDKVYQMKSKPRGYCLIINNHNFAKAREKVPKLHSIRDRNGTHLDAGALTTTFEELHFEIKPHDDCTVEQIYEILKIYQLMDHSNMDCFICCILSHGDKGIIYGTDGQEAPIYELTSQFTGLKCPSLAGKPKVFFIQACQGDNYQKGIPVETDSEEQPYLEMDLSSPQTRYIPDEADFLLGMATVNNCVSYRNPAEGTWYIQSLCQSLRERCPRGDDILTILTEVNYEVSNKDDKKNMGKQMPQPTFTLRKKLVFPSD

Experiments:
ACAT1 C119 (P24752) = ACAT1 C119 (P24752) (Homo sapiens, UniProt P24752); assay: Competitive isoTOP-ABPP, cell lysates; format: binding; conditions: 500 μM, invitro
ACAT1 C126 (P24752) = ACAT1 C126 (P24752) (Homo sapiens, UniProt P24752); assay: Competitive isoTOP-ABPP, cell lysates; format: binding; conditions: 500 μM, invitro, 231
ERCC3 C342 (P19447) = ERCC3 C342 (P19447) (Homo sapiens, UniProt P19447); assay: Competitive isoTOP-ABPP, cell lysates; format: binding; conditions: 500 μM, invitro
ACAT1 C196 (P24752) = ACAT1 C196 (P24752) (Homo sapiens, UniProt P24752); assay: Competitive isoTOP-ABPP, cell lysates; format: binding; conditions: 500 μM, invitro, 231
ACAT1 C413 (P24752) = ACAT1 C413 (P24752) (Homo sapiens, UniProt P24752); assay: Competitive isoTOP-ABPP, cell lysates; format: binding; conditions: 500 μM, invitro, 231
SMARCC2 C145 (Q8TAQ2) = SMARCC2 C145 (Q8TAQ2) (Homo sapiens, UniProt Q8TAQ2); assay: Competitive isoTOP-ABPP, cell lysates; format: binding; conditions: 500 μM, invitro, 231
Procedure: (§1) TEV digests were pressure loaded onto a 250 μm (inner diameter) fused silica capillary column packed with C18 resin (Aqua 5 μm, Phenomenex). The samples were analyzed by multidimensional liquid chromatography tandem mass spectrometry (MudPIT), using an LTQ-Velos Orbitrap mass spectrometer (Thermo Scientific) coupled to an Agilent 1200-series quaternary pump. The peptides were eluted onto a biphasic column with a 5 μm tip (100 μm fused silica, packed with C18 (10 cm) and bulk strong cation exchange resin (3 cm, SCX, Phenomenex,)) in a 5-step MudPIT experiment, using 0%, 30%, 60%, 90%, and 100% salt bumps of 500 mM aqueous ammonium acetate and using a gradient of 5-100% buffer B in buffer A (buffer A: 95% water, 5% acetonitrile, 0.1% formic acid; buffer B: 5% water, 95% acetonitrile, 0.1% formic acid) as has been described in Weerapana et al. Nat Protoc 2:1414-1425 (2007). Data was collected in data-dependent acquisition mode with dynamic exclusion enabled (20 s, repeat of 2). One full MS (MS1) scan (400-1800 m/z) was followed by 30 MS2 scans (ITMS) of the nth most abundant ions.
(§2) The ratios of heavy/light for each unique peptide (DMSO/compound treated; isoTOP-ABPP ratios, R values) were quantified with in-house CIMAGE software, using default parameters (3 ms s per peak and signal to noise threshold 2.5). Site-specific engagement of electrophilic fragments was assessed by blockade of IA-alkyne probe labeling. […] Ratios for unique peptide entries were calculated for each experiment; overlapping peptides with the same modified cysteine (e.g. different charge states, MudPIT chromatographic steps or tryptic termini) were grouped together and the median ratio was reported as the final ratio (R). The peptide ratios reported by CIMAGE were further filtered to ensure the removal or correction of low quality ratios in each individual dataset. The quality filters applied were the following: removal of half tryptic peptides; for ratios with high standard deviations from the median (90% of the median or above) the lowest ratio was taken instead of the median; removal of peptides with R=20 and only a single ms2 event triggered during the elution of the parent ion; manual annotation of all the peptides with ratios of 20, removing any peptides with low-quality elution profiles that remained after the previous curation steps. Proteome reactivity values for individual fragments were computed as the percentage of the total quantified cysteine-containing peptides with R values≥4 (defined as liganded cysteines) for each replicate experiment and the final proteome reactivity value was calculated as the mean for all replicate experiments for each fragment from both MDA-MB-231 and Ramos cellular proteomes.
(§3) Biological replicates of the same compound and cell-line were averaged if the standard deviation was below 60% of the mean; otherwise the lowest value of the ratio set was taken.

GSTP1 C48 (P09211) = GSTP1 C48 (P09211) (Homo sapiens, UniProt P09211); assay: Competitive isoTOP-ABPP, cell lysates; format: binding; conditions: 500 μM, invitro
Procedure: as §1, §2, §3

PDIA6 C55 (Q15084) = PDIA6 C55 (Q15084) (Homo sapiens, UniProt Q15084); assay: Competitive isoTOP-ABPP, cell lysates; format: binding; conditions: 500 μM, invitro, 231
Procedure: as §1, §2, §3

PDIA6 C190 (Q15084) = PDIA6 C190 (Q15084) (Homo sapiens, UniProt Q15084); assay: Competitive isoTOP-ABPP, cell lysates; format: binding; conditions: 500 μM, invitro
Procedure: as §1, §2, §3

PCK2 C306 (Q16822) = PCK2 C306 (Q16822) (Homo sapiens, UniProt Q16822); assay: Competitive isoTOP-ABPP, cell lysates; format: binding; conditions: 500 μM, invitro, 231
Procedure: as §1, §2, §3

GNB2L1 C182 (P63244) = GNB2L1 C182 (P63244) (Homo sapiens, UniProt P63244); assay: Competitive isoTOP-ABPP, cell lysates; format: binding; conditions: 500 μM, invitro, 231
Procedure: as §1, §2, §3

LRBA C1704 (P50851) = LRBA C1704 (P50851) (Homo sapiens, UniProt P50851); assay: Competitive isoTOP-ABPP, cell lysates; format: binding; conditions: 500 μM, invitro
Procedure: as §1, §2, §3

MLTK C22 (Q9NYL2) = MLTK C22 (Q9NYL2) (Homo sapiens, UniProt Q9NYL2); assay: Competitive isoTOP-ABPP, cell lysates; format: binding; conditions: 500 μM, invitro, 231
Procedure: as §1, §2, §3

IDH2 C308 (P48735) = IDH2 C308 (P48735) (Homo sapiens, UniProt P48735); assay: Competitive isoTOP-ABPP, cell lysates; format: binding; conditions: 500 μM, invitro, 231
Procedure: as §1, §2, §3

IREB2 C137 (P48200) = IREB2 C137 (P48200) (Homo sapiens, UniProt P48200); assay: Competitive isoTOP-ABPP, cell lysates; format: binding; conditions: 500 μM, invitro, ramos
Procedure: as §1, §2, §3

MGMT C150 (P16455) = MGMT C150 (P16455) (Homo sapiens, UniProt P16455); assay: Competitive isoTOP-ABPP, cell lysates; format: binding; conditions: 500 μM, invitro, ramos
Procedure: as §1, §2, §3

IRF8 C306 (Q02556) = IRF8 C306 (Q02556) (Homo sapiens, UniProt Q02556); assay: Competitive isoTOP-ABPP, cell lysates; format: binding; conditions: 500 μM, invitro, ramos
Procedure: as §1, §2, §3

CASP8 = CASP8 (Homo sapiens, UniProt Q14790); assay: Quantitative proteomics (ABPP-SILAC) with probe 61 in cells; format: cell-based
CASP10 = CASP10 (Homo sapiens, UniProt Q92851); assay: as above; format: cell-based
active CASP10 = active CASP10 (Homo sapiens, UniProt Q92851); assay: Active CASP10 activity assay (AEVD-AMC substrate); format: biochemical; conditions: fragments 25 μM; DEVD-CHO 20 μM
[1] = primary human T cells and Jurkat cells

SMILES: O=C(c1ccccc1)N1CCC(N(C(=O)CCl)c2ccccc2)CC1
- isoTOP-ABPP ratio, P24752_C119 (ACAT1 C119 (P24752); 231): 2.3
- isoTOP-ABPP ratio, P24752_C119 (ACAT1 C119 (P24752); ramos): 2.0
- isoTOP-ABPP ratio, P24752_C126 (ACAT1 C126 (P24752)): 2.2
- isoTOP-ABPP ratio, P19447_C342 (ERCC3 C342 (P19447); 231): 1.3
- isoTOP-ABPP ratio, P19447_C342 (ERCC3 C342 (P19447); ramos): 2.0
- isoTOP-ABPP ratio, P24752_C196 (ACAT1 C196 (P24752)): 1.9
- isoTOP-ABPP ratio, P24752_C413 (ACAT1 C413 (P24752)): 4.2
- isoTOP-ABPP ratio, Q8TAQ2_C145 (SMARCC2 C145 (Q8TAQ2)): 1.0
- isoTOP-ABPP ratio, P09211_C48 (GSTP1 C48 (P09211); 231): 1.8
- isoTOP-ABPP ratio, P09211_C48 (GSTP1 C48 (P09211); ramos): 0.9
- isoTOP-ABPP ratio, Q15084_C55 (PDIA6 C55 (Q15084)): 1.0
- isoTOP-ABPP ratio, Q15084_C190 (PDIA6 C190 (Q15084); 231): 1.0
- isoTOP-ABPP ratio, Q15084_C190 (PDIA6 C190 (Q15084); ramos): 1.2
- isoTOP-ABPP ratio, Q16822_C306 (PCK2 C306 (Q16822)): 1.4
- isoTOP-ABPP ratio, P63244_C182 (GNB2L1 C182 (P63244)): 1.5
- isoTOP-ABPP ratio, P50851_C1704 (LRBA C1704 (P50851); 231): 1.8
- isoTOP-ABPP ratio, P50851_C1704 (LRBA C1704 (P50851); ramos): 1.6
- isoTOP-ABPP ratio, Q9NYL2_C22 (MLTK C22 (Q9NYL2)): 3.1
- isoTOP-ABPP ratio, P48735_C308 (IDH2 C308 (P48735)): 0.9
- isoTOP-ABPP ratio, P48200_C137 (IREB2 C137 (P48200)): 2.2
- isoTOP-ABPP ratio, P16455_C150 (MGMT C150 (P16455)): 20.0
- isoTOP-ABPP ratio, Q02556_C306 (IRF8 C306 (Q02556)): 20.0
- inhibition of CASP8 in cells (probe 61 proteomics) (CASP8; Jurkat cells): fully inhibited
- blockade of CASP8 (chemical proteomics with probe 61) (CASP8; [1]): blocked
- inhibition of CASP10 in cells (probe 61 proteomics) (CASP10; Jurkat cells): fully inhibited
- blockade of CASP10 (chemical proteomics with probe 61) (CASP10; [1]): blocked
- activity of active CASP10 (substrate assay) (active CASP10): did not inhibit
